Reference: PMC5430633, “Phosphorylation of the mitochondrial autophagy receptor Nix enhances its interaction with LC3 proteins” (Scientific Reports, 2017)

Tests used:
Format in all cases: binding, human
[1] = system: GFP-LC3B K51A; assay: Co-immunoprecipitation with GFP-LC3B K51A; settings: α-GFP IP, Western blot
Procedure: (§1) Cells were scraped, centrifuged at 500 g for 5 min, and lysed in 150 µL CHAPS lysis buffer (2% CHAPS, 1% Triton X-100, 137 mM NaCl, 2 mM EDTA, 10% glycerol, and 20 mM Tris-HCl, pH 8.0) containing protease and phosphatase inhibitors. 5 µL of total lysate was kept as Input sample and 145 µL of cell lysate was incubated with 12.5 µL α-GFP (1:40, Roche)-coupled Dynabeads Protein G (purchased from Invitrogen) for 2 hrs at 4 °C. This step was followed by three washing steps using 0.02% Tween-20/PBS and immunoprecipitated proteins were eluted from Dynabeads by adding 4X LDS buffer (purchased from Invitrogen) and 10X sample reducing agent (purchased from Invitrogen) to the beads. Heating at 70 °C for 10 min will denaturized the proteins to analyze them by Western blotting.

[2] = system: EGFP-LC3B R11A; assay: Co-immunoprecipitation with EGFP-LC3B R11A; settings: α-GFP IP, 24 hrs post transfection, Fig. S5a
Procedure: as §1

[3] = system: EGFP-LC3B R10A; assay: Co-immunoprecipitation with EGFP-LC3B R10A; settings: α-GFP IP, 24 hrs post transfection, Fig. S5a
Procedure: as §1

## tRFP-p62: autophagy receptor p62 expressed in cells, positive control [reference compound]
[1]
  co-immunoprecipitation with GFP-LC3B K51A: fails to coimmunoprecipitate
[2]
  co-immunoprecipitation with LC3B R11A: weakly coimmunoprecipitates
[3]
  co-immunoprecipitation with LC3B R10A: weakly coimmunoprecipitates
